This assay relates to Rats pre-treated with d-amphetamine. In words: animal or person. Conditions: Rattus norvegicus, read-out: ED50 reduction of amphetamine-induced hyper-locomotion.

SMILES strings stand for the structures.

The ED50 is the dose at which the effect has come halfway, by size or by number of responders.

As to `OCCCN1CCC(c2cccc(C(F)(F)F)c2F)CC1`, the median effective dose (ED50) came to 12.4 µmol/kg.

Regarding `CCN1CCC(c2cccc(S(C)(=O)=O)c2F)CC1` [drawing 42], the 50% effective dose (ED50) amounted to 28 µmol/kg.

The values above are taken from US8314126B2, “Disubstituted phenylpiperdines/piperazines as modulators of dopamine neurotransmission” (NSAB, Filial af Neurosearch Sweden AB, Sverige, priority 2004, dated 2012).
